# Assay: pKa
smiles,measurement,value
CC[C@H]1OC(=O)[C@H](C)[C@@H](O[C@H]2C[C@@](C)(OC)[C@@H](O)[C@H](C)O2)[C@H](C)[C@@H](O[C@@H]2O[C@H](C)C[C@H](N(C)C)[C@H]2O)[C@](C)(OC)C[C@@H](C)C(=O)[C@H](C)[C@@H](O)[C@]1(C)O [Clarithromycin],"pKa (b, basic)",8.99b
